Results reported in US20040053822A1, “Inducing cellular immune responses to mage2/3 using peptide and nucleic acid compositions” (priority 2002, published 2004).

Chains of the proteins cited; added tags and fusions are not shown. Lines headed by an entry give the natural chain unless they say otherwise; changes in a name come on top. Residues count along the entry.
UniProt P01889, 25-362: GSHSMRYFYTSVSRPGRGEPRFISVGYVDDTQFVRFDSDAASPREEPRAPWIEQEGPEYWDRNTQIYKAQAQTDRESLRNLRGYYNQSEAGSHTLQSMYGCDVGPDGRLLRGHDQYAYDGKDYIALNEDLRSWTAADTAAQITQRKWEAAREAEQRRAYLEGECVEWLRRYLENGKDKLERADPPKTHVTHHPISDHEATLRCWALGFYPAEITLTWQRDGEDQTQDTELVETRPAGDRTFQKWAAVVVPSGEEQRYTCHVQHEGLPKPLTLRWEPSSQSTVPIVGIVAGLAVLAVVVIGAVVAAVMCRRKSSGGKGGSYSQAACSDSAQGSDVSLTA

Experiments:
HLA-DRB1*0701 (DR7) = HLA-DRB1*0701 (DR7) (Homo sapiens, UniProt P01903+P01911, A100R/A102G/A103Q/D57E/D86V/E43K/F76Y/K127E/L162R/M171V/P40G/Q125H/Q99D/R33Q/R42Y/R54Q/S133A/S66F/T210M/V115G/Y107V/Y59L/Y89S); test: Purified HLA class II peptide binding assay, DRB1*0701
HLA-DRB1*0401 (DR4w4) = HLA-DRB1*0401 (DR4w4) (Homo sapiens, UniProt P01903+P01911, A100K/A169T/F76Y/I96L/K127E/L162R/M171V/N62H/P40V/Q125Y/R42H/S133A/S149N/S66Y/V115G/V209L/W38E); test: Purified HLA class II peptide binding assay, DRB1*0401
HLA-DRB1*0101 (DR1) = HLA-DRB1*0101 (DR1) (Homo sapiens, UniProt P01903+P01911, A100R/D57E/F55L/F60I/F76Y/I96L/L162R/M171V/P40L/Q125E/R42F/V115G/Y59C); test: Purified HLA class II peptide binding assay, DRB1*0101
HLA-A*0101 = HLA-A*0101 (Homo sapiens, UniProt P04439, A114D/A174V/A182V/D101N/D185E/E176A/E190D/L180R/Q94H/R68K/S129P/T187R/V100A/V91M/W191G); test: Purified HLA class I peptide binding assay (125I probe inhibition), A*0101; conditions: HLA-A1 motif-bearing peptides
HLA-B*0702 = HLA-B*0702 (Homo sapiens, UniProt P01889); test: Purified HLA class I peptide binding assay, B*0702
[1] = test system: B7-supertype molecules (B*0702, B*3501, B*5101, B*5301, and B*5401); test: B7-supertype cross-reactive binding (five alleles); parameters: species or system human
HLA-B*5401 = HLA-B*5401 (Homo sapiens, UniProt P01889, A329T/C349S/D138N/D201E/E176V/E187T/E204Q/E69G/I76V/K202T/L119W/R155S/R180L/S121T/S35A/S48A/V127L/V306I/V36M/Y140L); test: Purified HLA class I peptide binding assay, B*5401; conditions: binding affinity, HLA-B7 supermotif-bearing peptides; read-out: B*5401 nM
HLA-B*3501 = HLA-B*3501 (Homo sapiens, UniProt P01889, A329T/A93T/A95T/C349S/D201E/D98Y/E176V/E187L/E204Q/E69T/I218V/K202T/L119I/Q94N/R155S/R180L/S121R/S35A/S48A/T118I/V127L/V306I/V36M/Y140S/Y91F); test: Purified HLA class I peptide binding assay, B*3501; conditions: binding affinity, HLA-B7 supermotif-bearing peptides
HLA-B*5101 (B51) = HLA-B*5101 (B51) (Homo sapiens, UniProt P01889, A329T/A93T/A95T/C349S/D138N/D201E/D98Y/E187L/E204Q/E69T/G107R/I218V/K202T/L105A/L119W/N104I/Q94N/R106L/R155S/R180L/S101N/S121T/S35A/S48A/V306I/V36M/Y195H/Y91F); test: Purified HLA class I peptide binding assay, B51; conditions: binding affinity, HLA-B7 supermotif-bearing peptides; read-out: B*5101 nM
HLA-B*5301 = HLA-B*5301 (Homo sapiens, UniProt P01889, A329T/A93T/A95T/C349S/D201E/D98Y/E176V/E187L/E204Q/E69T/G107R/I218V/K202T/L105A/L119I/N104I/Q94N/R106L/R155S/R180L/S101N/S121R/S35A/S48A/T118I/V127L/V306I/V36M/Y140S/Y91F); test: Purified HLA class I peptide binding assay, B*5301; conditions: binding affinity, HLA-B7 supermotif-bearing peptides
[2] = Mage 2/3 DR motif peptides, unit not given
[3] = Mage 2 DR super motif peptides (Table XIX A)

SMILES: CC[C@H](C)[C@H](NC(=O)[C@H](C)NC(=O)[C@H](CC(C)C)NC(=O)[C@@H](NC(=O)[C@@H](NC(=O)[C@@H](NC(=O)[C@H](CC(C)C)NC(=O)[C@H](CC(C)C)NC(=O)CNC(=O)[C@H](C)N)[C@@H](C)CC)[C@@H](C)CC)C(C)C)C(=O)N[C@H](C(=O)N[C@@H](C)C(=O)N[C@@H](CCCNC(=N)N)C(=O)N[C@@H](CCC(=O)O)C(=O)NCC(=O)O)[C@@H](C)CC
- IC50 (HLA-DRB1*0701 (DR7)): > 9610 nM

SMILES: CC[C@H](C)[C@H](NC(=O)[C@H](CCC(N)=O)NC(=O)[C@H](CC(N)=O)NC(=O)[C@H](CC(=O)O)NC(=O)CNC(=O)[C@H](CC(C)C)NC(=O)[C@H](CC(C)C)NC(=O)CNC(=O)[C@@H](N)CC(=O)O)C(=O)N[C@@H](CCSC)C(=O)N1CCC[C@H]1C(=O)N[C@@H](CCCCN)C(=O)N[C@@H](C)C(=O)NCC(=O)N[C@@H](CC(C)C)C(=O)O
- DR4w4 binding data (HLA-DRB1*0401 (DR4w4); [2]): −0.0032
- DR1 binding data (HLA-DRB1*0101 (DR1); [2]): −0.0003

SMILES: CC(C)C[C@H](NC(=O)CNC(=O)[C@H](CC(C)C)NC(=O)[C@H](CC(=O)O)NC(=O)[C@@H](NC(=O)[C@@H](N)C(C)C)[C@@H](C)O)C(=O)N[C@@H](CO)C(=O)N[C@@H](Cc1ccc(O)cc1)C(=O)O
- IC50 (HLA-A*0101): 2.7 nM

SMILES: CSCC[C@H](NC(=O)[C@@H](NC(=O)[C@H](CCC(N)=O)NC(=O)[C@H](CC(N)=O)NC(=O)[C@H](CC(=O)O)NC(=O)CNC(=O)[C@H](CC(C)C)NC(=O)[C@H](CC(C)C)NC(=O)CNC(=O)[C@@H](N)CC(=O)O)C(C)C)C(=O)N1CCC[C@H]1C(=O)N[C@@H](CCCCN)C(=O)N[C@H](C(=O)NCC(=O)N[C@@H](CC(C)C)C(=O)O)[C@@H](C)O
- DR4w4 binding data (HLA-DRB1*0401 (DR4w4); [3]): −0.0032
- DR1 binding data (HLA-DRB1*0101 (DR1); [3]): −0.0005
- DR7 binding data (HLA-DRB1*0701 (DR7); [3]): −0.0011

The remaining lines, values ahead:

- IC50 (HLA-A*0101): 676 nM
SMILES: CSCC[C@H](NC(=O)[C@@H](NC(=O)[C@@H](NC(=O)[C@@H]1CCCN1C(=O)[C@H](CC(C)C)NC(=O)[C@H](CO)NC(=O)[C@@H](N)CO)[C@@H](C)O)[C@@H](C)O)C(=O)N[C@@H](CC(N)=O)C(=O)N[C@@H](Cc1ccc(O)cc1)C(=O)O

- IC50 (HLA-B*0702): 100 nM
- No. of B7 Alleles Crossbound [1]: 5
- IC50 (HLA-B*5401): 4.2 nM
- IC50 (HLA-B*3501): 343 nM
SMILES: CC[C@H](C)[C@H](NC(=O)[C@@H]1CCCN1C(=O)[C@H](Cc1ccc(O)cc1)NC(=O)[C@H](CC(N)=O)NC(=O)[C@H](CCSC)NC(=O)[C@@H](NC(=O)[C@@H](NC(=O)[C@@H]1CCCN1C(=O)[C@@H](N)CC(C)C)[C@@H](C)O)[C@@H](C)O)C(=O)O

- IC50 (HLA-A*0101): 490 nM
SMILES: CC[C@H](C)[C@H](NC(=O)[C@@H](NC(=O)[C@@H](NC(=O)[C@H](CO)NC(=O)[C@H](Cc1ccccc1)NC(=O)[C@@H](NC(=O)[C@@H](N)CO)[C@@H](C)O)[C@@H](C)O)[C@@H](C)O)C(=O)N[C@@H](CC(N)=O)C(=O)N[C@@H](Cc1ccc(O)cc1)C(=O)O

- IC50 (HLA-B*5101 (B51)): 135 nM
- No. of B7 Alleles Crossbound [1]: 3
- IC50 (HLA-B*5401): 8330 nM
- IC50 (HLA-B*3501): 195 nM
- IC50 (HLA-B*5301): 6640 nM
SMILES: CC[C@H](C)[C@H](NC(=O)[C@@H]1CCCN1C(=O)[C@@H](N)C(C)C)C(=O)N[C@@H](CO)C(=O)N[C@@H](Cc1c[nH]cn1)C(=O)N[C@@H](CC(C)C)C(=O)N[C@@H](Cc1ccc(O)cc1)C(=O)N[C@@H](C)C(=O)N[C@@H](CC(C)C)C(=O)O [VPISHLYAL]

- IC50 (HLA-A*0101): 208 nM
SMILES: CSCC[C@H](NC(=O)[C@@H](NC(=O)[C@@H](NC(=O)[C@@H]1CCCN1C(=O)[C@H](CC(C)C)NC(=O)[C@H](CO)NC(=O)[C@@H](NC(=O)[C@H](C)N)[C@@H](C)O)[C@@H](C)O)[C@@H](C)O)C(=O)N[C@@H](CC(N)=O)C(=O)N[C@@H](Cc1ccc(O)cc1)C(=O)O

Each block holds one compound with its values, some of them ahead of it.
